Screens deposited in PubChem by National Center for Advancing Translational Sciences (NCATS).
LMNA splice mod: LMNA splicing modulation; Potency, µM (doses to about 46.1 µM), actives largely listed as inhibitors; 200,000 tested, 0.01% active; AID 1487; HeLa LMNA splicing GFP/RFP minigene ratio, 48 h; active = well fitted inhibition curve with a large enough effect in the signal ratio, with a control signal flat, not every such curve was filed as active; inconclusive = small, poorly fitted or top-dose-only effect, or effect the other way, or a change in a side signal; the % refers to the signal ratio
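S3 HeLa stable clones carrying a lamin A-EGFP splicing minigene plus DsRed2 were seeded at 600 cells/well in Opti-MEM with 2% FBS, pin-dosed and incubated 48 h at 37°C. Acumen cytometry (488 nm) gave the GFP/RFP total-intensity ratio.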
KDM4E inh: JMJD2E (human) inhibition | B2RXH2 | JMJD2E catalytic domain, FDH-coupled NADH fluorescence (FDH is formaldehyde dehydrogenase) | Potency, µM (doses to about 57.1 µM), hits mostly inhibitors | 230,000 tested, 1.6% active | AID 2147; active = well fitted inhibition curve with a large enough effect, not every such curve was filed as active; inconclusive = small, poorly fitted or top-dose-only effect, or another doubt; inactive = no such curve, though single readings can be large or run the other way; note: nearly all actives have a fitted effect of over 50% in size
Sfp inh: Sfp phosphopantetheinyl transferase inhibition; Potency, µM, actives largely listed as inhibitors; Q9F4F7; Biochemical Sfp PPTase activity, qHTS; 310,000 tested, 3.5% active;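 note: the enzyme is Sfp with the accession as filed and its product quenches rhodamine fluorescence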
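Compounds were incubated with enzyme (final 15 nM) for 15 min at room temperature before substrate addition started the reaction. Fluorescence at 525 nm excitation, 598 nm emission was recorded immediately and after 30 minutes.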
ALDH1A1 inh: inhibitors of human aldehyde dehydrogenase 1A1 | P00352 | AID 1030 | 220,000 tested, 7.3% active | Purified ALDH1A1, NADH fluorescence, propionaldehyde substrate | Potency, µM (doses to about 75.3 µM), usual class: inhibitors; active = well fitted inhibition curve with a large enough effect, not every such curve was filed as active; inconclusive = small, poorly fitted or top-dose-only effect, or another doubt; inactive = no such curve, though single readings can be large or run the other way
G9a block: blocks human histone lysine methyltransferase G9a; G9a H3K9 monomethylation, AlphaScreen, 2 h; Q96KQ7; 350,000 tested, 8.8% active; Potency, µM (titrated, usually from 102 µM), usual class: inhibitors; note: nearly all actives have a fitted effect of over 75% in size
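G9a (20 nM) preincubated 15 min RT with compounds, then 500 nM biotinylated H3K9 peptide and 20 uM SAM added; 2 h RT reaction. Monomethyl-H3K9 product detected by AlphaScreen with anti-H3K9me1 antibody, streptavidin donor and anti-rabbit IgG acceptor beads.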
miR-21 reporter: raises the signal of a miR-21 reporter | AID 2288 | 340,000 tested, under 10 active | Potency, µM (series often up to 38.3 µM) | HeLa miR-21 FLuc reporter, luciferase, 48 h; active = well fitted rising curve with a large enough effect; inconclusive = small, poorly fitted or top-dose-only effect; inactive = no such curve, though single readings can be large or run the other way;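 further: miR-21 action dims this reporter so a rising signal means less miR-21 action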
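Using DMEM plus 10% FBS, HeLa miR-21-FLuc cells are incubated with test compounds (final up to about 40uM) for 48 hours; firefly luciferase signal is then imaged following reagent-mediated lysis.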
Numbers stand for hits; [ ] = remark or other dose. Hits are enriched below; roughly 13% of the tested compounds scored in any of these assays. Unless noted, calls come from the whole dose curve; as a rule, active = well fitted curve in the direction sought with a large enough effect; inconclusive = small, poorly fitted or top-dose-only effect, or another doubt; inactive = no such curve, though single readings can be large; an effect the other way counts as inactive or inconclusive.

For COC(=O)c1nc(NC(=O)c2cc(OC)c(OC)c(OC)c2)n[nH]1 the results were Sfp inh inactive, G9a block 11µM and miR-21 reporter inactive.
For COc1ccc(C(=O)Nc2ccc(NC(=O)c3cccc(OC)c3)cn2)cc1 the results were Sfp inh inactive, G9a block inactive and miR-21 reporter inactive.
For COc1ccc(C(=O)Nc2ccc(NC(=O)c3cccs3)cn2)cc1 the results were Sfp inh inactive, G9a block 22µM and miR-21 reporter inactive.
For C/C(CC(=O)NCc1ccco1)=N\NC(=O)c1ccc([N+](=O)[O-])cc1Cl the results were Sfp inh inactive, G9a block inactive and miR-21 reporter inactive.
Cc1ccc(NC(=O)Cn2nnc(C(=O)NCCc3ccccc3)c2N)cc1C was read as LMNA splice mod inactive, G9a block inactive and miR-21 reporter inactive.
For COc1ccc(C(=O)Nc2ccc(NC(=O)c3cc(OC)c(OC)c(OC)c3)cn2)cc1 the results were Sfp inh inactive, G9a block 40µM and miR-21 reporter inactive.
Screening Nc1cc(N)nc(SCC(=O)NC(=O)NC2CCCC2)n1 returned G9a block inactive[2.33 µM].
Screening COc1ccccc1C(=O)NC(=O)CSc1nc(C)cs1 returned G9a block 50µM.
For Cc1nc(SCC(=O)NC(=O)NC2CCCCC2)nc(C)c1C the results were KDM4E inh inactive, Sfp inh 50µM, ALDH1A1 inh inactive, G9a block 14µM and miR-21 reporter inactive.
`Cc1cc(C)n2nc(SCC(=O)N3CCN(c4ccc(F)cc4)CC3)nc2n1` gave G9a block inactive.
Screening Cc1cc(C)n2nc(SCCCC(=O)c3ccc(F)cc3)nc2n1 returned LMNA splice mod inactive, KDM4E inh inactive, Sfp inh inconclusive, ALDH1A1 inh inactive, G9a block 50µM and miR-21 reporter inactive.
Cc1csc(SCC(=O)NC(=O)NC(C)(C)C)n1 was read as KDM4E inh inactive, Sfp inh inactive, ALDH1A1 inh inactive, G9a block inactive and miR-21 reporter inactive.
For COc1ccccc1CNC(=O)CSc1nc(C)cs1 the results were KDM4E inh inactive, Sfp inh inactive, ALDH1A1 inh inactive, G9a block inactive and miR-21 reporter inactive.
For Cc1csc(SCC(=O)NC(=O)NC2CCCC2)n1 the results were KDM4E inh inconclusive, Sfp inh inactive, ALDH1A1 inh inconclusive, G9a block 45µM and miR-21 reporter inactive.
`O=C(Nc1cccc(F)c1)c1ccc2oc(=O)n(Cc3ccccc3)c2c1` gave LMNA splice mod inactive, G9a block inactive and miR-21 reporter inactive.
`Cc1cc(C)n2nc(SCC(=O)NC3CCCCC3)nc2n1` gave Sfp inh 40µM, G9a block 45µM and miR-21 reporter inactive.
Cc1cc(C)nc(SCC(=O)NC2CCCC2)n1 was read as LMNA splice mod inactive, KDM4E inh inactive, Sfp inh inactive, ALDH1A1 inh inactive, G9a block inactive and miR-21 reporter inactive.
Screening CCCn1c(C)nc2cc(Cl)c(N3CCN(c4nc(-c5ccc(C)cc5)cs4)CC3)cc21 returned Sfp inh inactive and miR-21 reporter inactive.
COc1ccc(-c2csc(N3CCN(c4cc5c(cc4Cl)nc(-c4ccncc4)n5CCOCCO)CC3)n2)cc1 was read as Sfp inh 45µM, G9a block 28µM and miR-21 reporter inactive.
For Cc1ccc(-c2csc(N3CCN(c4cc5c(cc4Cl)nc(-c4ccncc4)n5CCN4CCCCC4)CC3)n2)cc1 the results were Sfp inh 56µM, G9a block 22µM and miR-21 reporter inactive.
Cc1ccc(-c2csc(N3CCN(c4ccc5nc(-c6ccncc6)n(CCN6CCCCC6)c5c4)CC3)n2)cc1 was read as Sfp inh 56µM, G9a block 35µM and miR-21 reporter inactive.
Screening CCOC(=O)N1CCN(C(=O)c2oc(=O)c3ccccc3c2-c2ccc(C)cc2)CC1 returned LMNA splice mod inactive, KDM4E inh inactive, Sfp inh inactive, ALDH1A1 inh 0.014µM, G9a block inconclusive and miR-21 reporter inactive.
Screening Cc1ccc(-c2c(C(=O)NC(C)C)oc(=O)c3ccccc23)cc1 returned KDM4E inh inactive, Sfp inh inconclusive, ALDH1A1 inh 1.4µM, G9a block inactive and miR-21 reporter inactive.
Cc1ccc(-c2c(C(=O)N(C)Cc3ccccc3)oc(=O)c3ccccc23)cc1 was read as LMNA splice mod inconclusive, KDM4E inh inactive, Sfp inh inconclusive, ALDH1A1 inh 1.8µM, G9a block inactive and miR-21 reporter inconclusive.
For Cc1ccc(-c2c(C(=O)NCc3ccccc3)oc(=O)c3ccccc23)cc1 the results were LMNA splice mod inactive, KDM4E inh inactive, Sfp inh inactive, ALDH1A1 inh inconclusive, G9a block inactive and miR-21 reporter inactive.
For Cc1cc2nc(-c3ccc(OCc4ccc(F)cc4)cc3)cc(C(F)(F)F)n2n1 the results were G9a block inactive and miR-21 reporter inactive.
For COCCN(C(=O)Nc1ccc(OC)cc1)c1nc2ccccc2s1 the results were Sfp inh inactive and miR-21 reporter inactive.
COc1cccc(CN(C)C(=O)C2CC(=O)N(c3ccc4c(c3)OCCO4)C2)c1 (stereo unspecified) was read as G9a block inactive.
CCOc1ccc(C(=S)N2CCN(C)CC2)cc1 was read as KDM4E inh inactive, Sfp inh 14µM, ALDH1A1 inh inactive, G9a block 40µM and miR-21 reporter inactive.
CCOc1cc(C(=S)N2CCCC2)ccc1OC was read as Sfp inh inactive, G9a block inactive and miR-21 reporter inactive.
`CCOc1ccc(C(=S)N2CCCC2)c(OCC)c1` gave Sfp inh 50µM, G9a block 10µM and miR-21 reporter inactive.
`CCOc1ccc(C(=S)N2CCCC2)cc1` gave LMNA splice mod inactive, KDM4E inh inactive, Sfp inh inactive, ALDH1A1 inh inconclusive, G9a block inactive[2.33 µM] and miR-21 reporter inactive.
`Cc1[nH][nH]c(=O)c1C(c1c(C)[nH][nH]c1=O)c1cn(Cc2ccc(Cl)c(Cl)c2)c2ccccc12` gave LMNA splice mod inconclusive, KDM4E inh inactive, Sfp inh inactive, ALDH1A1 inh 3.5µM, G9a block 8.9µM and miR-21 reporter inactive.
`Cc1[nH][nH]c(=O)c1C(c1c(C)[nH][nH]c1=O)c1cn(Cc2ccc(F)cc2)c2ccccc12` gave LMNA splice mod inactive, KDM4E inh inconclusive, Sfp inh inactive, ALDH1A1 inh 1.4µM, G9a block 8.9µM and miR-21 reporter inconclusive.
`O=c1c2ccccc2ncn1Cc1ccc(Cl)c(Cl)c1` gave Sfp inh inactive and miR-21 reporter inactive.
Screening O=C(O)Cc1cn(Cc2ccc(F)cc2)c2ccccc12 returned LMNA splice mod inactive, KDM4E inh inactive, Sfp inh inactive, ALDH1A1 inh inactive, G9a block inactive and miR-21 reporter inactive.
